Data on three compounds can be found in PubChem BioAssay (NCATS).

The chains behind the UniProt entries cited, without tags or fusion partners.
UniProt O15297, whole entry: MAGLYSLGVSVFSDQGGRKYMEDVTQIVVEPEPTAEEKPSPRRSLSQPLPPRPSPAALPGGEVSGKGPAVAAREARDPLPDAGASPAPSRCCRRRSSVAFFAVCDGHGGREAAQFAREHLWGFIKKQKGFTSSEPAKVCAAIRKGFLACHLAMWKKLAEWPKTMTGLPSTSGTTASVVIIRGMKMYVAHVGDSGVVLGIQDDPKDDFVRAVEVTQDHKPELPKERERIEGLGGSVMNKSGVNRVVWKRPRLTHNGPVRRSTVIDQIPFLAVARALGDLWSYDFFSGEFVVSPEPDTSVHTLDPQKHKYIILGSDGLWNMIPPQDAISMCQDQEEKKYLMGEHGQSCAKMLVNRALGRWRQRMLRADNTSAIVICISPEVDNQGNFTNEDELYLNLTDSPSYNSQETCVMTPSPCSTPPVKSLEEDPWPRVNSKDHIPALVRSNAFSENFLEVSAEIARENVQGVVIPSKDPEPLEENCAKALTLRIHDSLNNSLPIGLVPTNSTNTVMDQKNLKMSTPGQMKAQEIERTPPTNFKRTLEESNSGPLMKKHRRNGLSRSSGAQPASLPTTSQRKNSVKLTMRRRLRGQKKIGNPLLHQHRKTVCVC

Each structure is given as a SMILES string. Where “and” joins values, the source holds several entries; their conditions need not be identical. Equal values may be shown once. This is a selection; strong and weak results do not stand in their true shares. Records with an inconclusive call do not appear. Calls of active or inactive are those of the source. Calls follow the shape of the dose curve; as a rule, active = well fitted curve in the direction sought with a large enough effect; inconclusive = small, poorly fitted or top-dose-only effect, or another doubt; inactive = no such curve, though single readings can be large; an effect the other way counts as inactive or inconclusive.

Assay [1] is described as follows: qHTS of pediatric cancer cell lines to identify multiple opportunities for drug repurposing: Primary screen for Rh41 cells (AID 1347108).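 Also: luminescence drop marks cytotoxic hits; nearly all actives have a fitted effect of over 70% in size.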 Particulars: Rh41 rhabdomyosarcoma viability, CellTiter-Glo luminescence, 48 h; at 46 µM (top of the series) unless noted. In a few lines:
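ATP-based luminescence (CellTiter-Glo) quantifies viability after a 48-hour exposure. Compounds are dosed across 8 or 11 final concentrations; DMSO and 2.3 µM bortezomib serve as controls.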
Background: In qHTS, concentration-response curves come from the screen itself.

Assay [2] is described as follows: qHTS of pediatric cancer cell lines to identify multiple opportunities for drug repurposing: Confirmatory screen for SK-N-MC cells (AID 1347111).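 Also: potency is read from the fitted curve at half-maximal effect; cells exposed to compound for 48 h before the readout; nearly all actives have a fitted effect of over 70% in size.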 The conditions noted are these: SK-N-MC cell viability. In a few lines: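 SK-N-MC cells at 500-1,000 cells/well in growth media were pre-incubated 5 h, then exposed to compounds at 11-point dilutions for 48 h at 37 degrees C, 5% CO2. Viability was read as CellTiter-Glo luminescence.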

Assay [3] in a line: qHTS of pediatric cancer cell lines to identify multiple opportunities for drug repurposing: Confirmatory screen for SJ-GBM2 cells (AID 1347116).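 Also: plate controls were DMSO for no effect and bortezomib for full effect; nearly all actives have a fitted effect of over 60% in size.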 The conditions noted are these: SJ-GBM2 glioblastoma cells, viability; at 45.9 µM (top of the series). In a few lines:
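Viability measured as metabolically active cells via CellTiter-Glo luminescence following 48 hours of compound exposure, 11-point dilutions in confirmatory testing. 500-1,000 cells/well plated 5 hours before dosing; controls were DMSO and 2.3 µM bortezomib.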

A short description of assay [4]: qHTS of pediatric cancer cell lines to identify multiple opportunities for drug repurposing: Confirmatory screen for control Hh wild type fibroblast cells (AID 1347121).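 Also: plate controls were DMSO for no effect and bortezomib for full effect; nearly all actives have a fitted effect of over 70% in size.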 Particulars: viability qHTS; at 45.9 µM (top of the series). The essentials:
(§1)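 Viability after 48 h compound treatment at 37C, 500-1,000 cells/well, read as ATP luminescence with CellTiter-Glo. Primary screens used 11-point (MIPE, 0.78 nM-46 µM) or 8-point (NPC, 0.59 nM-46 µM) final concentrations; follow-up screens used 11-point dilutions.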

The nature of assay [5]: qHTS of pediatric cancer cell lines to identify multiple opportunities for drug repurposing: Confirmatory screen for U-2 OS cells (AID 1347122).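 Also: plate controls were DMSO for no effect and bortezomib for full effect; nearly all actives have a fitted effect of over 65% in size.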 Particulars: U-2 OS osteosarcoma cell viability; at 45.9 µM (top of the series). In a few lines:
as §1

Assay [6] is described as follows: qHTS of pediatric cancer cell lines to identify multiple opportunities for drug repurposing: Confirmatory screen for RD cells (AID 1347124).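 Also: cells exposed to compound for 48 h before viability readout; % is scaled to controls: 0 for no effect and ±100 for the full control effect; nearly all actives have a fitted effect of over 65% in size.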 Particulars: RD rhabdomyosarcoma cell viability; at 45.9 µM (top of the series). In a few lines: as §1
Assay [7] is described as follows: qHTS of pediatric cancer cell lines to identify multiple opportunities for drug repurposing: Confirmatory screen for Rh18 cells (AID 1347125). Also: % is scaled to controls: 0 for no effect and ±100 for the full control effect; nearly all actives have a fitted effect of over 55% in size. Particulars: Rh18 rhabdomyosarcoma cells, viability; at 45.9 µM (top of the series). The essentials:
as §1

Assay [8] deals with Zika virus NS2B-NS3 protease. Briefly: Primary screen GU AMC qHTS for Zika virus inhibitors (AID 1347154).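 Also: 0% = no-inhibitor control and -100% = no-enzyme control; nearly all actives have a fitted effect of over 70% in size.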 Particulars: Zika NS2B-NS3 unlinked protease, AMC fluorogenic substrate; at 54.1 µM (top of the series) unless noted. In a few lines: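 Unlinked Zika NS2B hydrophilic domain–NS3 protease complex at 25 nM in 10 mM Tris-HCl pH 8.0, 0.01% Tween 20, with an AMC peptide substrate. Fluorescence change (340/450 nm) over 15 min at room temperature, normalized to controls, fitted to 4-parameter Hill.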

Assay [9] is described as follows: qHTS to identify inhibitors of the type 1 interferon - major histocompatibility complex class I in skeletal muscle: primary screen against the NCATS Pharmaceutical Collection (AID 1347407).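 Also: luminescence of HiBiT knocked into endogenous HLA-B as interferon-induced MHC class I level; % is scaled to controls: 0 for no effect and ±100 for the full control effect.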 The conditions noted are these: human skeletal muscle cells, IFN-b-induced MHC-I HiBiT luminescence, 24 h; at 92.2 µM (top of the series) unless noted. In a few lines:
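Cells were seeded with 4 ng/ml IFN-beta, incubated 1 h, then dosed with compounds over eight 1:5 steps up to 46 uM final. After 24 h at 37 C, HiBiT lytic reagent was added and luminescence read after 10 min lysis in the dark.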

In assay [10] the target is Protein phosphatase 1D (Homo sapiens) (UniProt O15297). Briefly: RapidFire Mass Spectrometry qHTS Assay for Modulators of WT P53-Induced Phosphatase 1 (WIP1) (AID 1347424).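 Also: amount of dephosphorylated VEPPL-S-QETFS peptide product formed by WIP1; plate controls were DMSO wells for no effect and GSK830371 inhibitor control at 10 µM for full effect.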 Particulars: WIP1 dephosphorylation of phosphopeptide, RapidFire MS; at 128 µM (top of the series) unless noted. The essentials:
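10 nM WIP1 preincubated with compounds 1 hr at room temperature in pH 7.5 Tris buffer with 30 mM MgCl2, 1 mM TCEP; 2 uM VEPPL-pS-QETFS phosphopeptide for 5 min, formic acid quench; dephosphorylated product quantified by RapidFire MS against labelled standard.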

For the compound `CN(CCCl)CCCl`, the activity change, negative = cytotoxic in [1] is inactive: 5.25% and inactive: 11.3%; in [3], inactive: -17.3%; in assay [6], inactive: 0.314%; in assay [7] it was inactive: -0.823%. For the same compound, in [2], the Potency was active: 14.7 µM. Also, in [4], the activity, negative = cytotoxic was inactive: 6.54%. Further, the activity change, negative = cytotoxicity in assay [5] was inactive: -3.36%. Besides, the activity change, negative = inhibition was inactive: -1.37% and inactive: 6.23% in assay [8]; inactive: 20% [at 45.9 µM] in assay [9]; inactive: 47.8% [at 63 µM] in assay [10].
`CCC(=O)N(c1ccccc1)C1(COC)CCN(CCc2cccs2)CC1`: the activity change, negative = inhibition in [8] is inactive: -0.449% [at 104 µM]; in assay [9] it was inactive: -10.6%; in assay [10], inactive: 38.2%.
As to `CCC(=O)N(c1ccccc1)C1(COC)CCN(CCn2nnn(CC)c2=O)CC1`, the activity change, negative = cytotoxic in assay [1] was inactive: -16.5% [at 92.7 µM]. For the same compound, the activity change, negative = inhibition is inactive: 1.07% [at 104 µM] in assay [8], inactive: -6.3% in assay [9] and inactive: -8.28% in assay [10].
